The target in this assay is T1, Eya3(ED) (Mus musculus, UniProt P97480).
T1 construct: The catalytic domain (ED) of mouse Eyes Absent 3 (Eya3(223–510)) was purified; made in house
T1 sequence (P97480 223-510): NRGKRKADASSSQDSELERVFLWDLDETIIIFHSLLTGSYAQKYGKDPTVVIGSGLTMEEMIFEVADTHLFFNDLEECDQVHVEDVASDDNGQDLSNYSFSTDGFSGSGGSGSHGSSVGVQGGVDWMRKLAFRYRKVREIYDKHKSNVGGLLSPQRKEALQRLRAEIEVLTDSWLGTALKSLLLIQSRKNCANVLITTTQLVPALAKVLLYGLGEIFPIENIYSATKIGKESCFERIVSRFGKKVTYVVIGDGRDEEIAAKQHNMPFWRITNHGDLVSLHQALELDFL
Put plainly: pNPP hydrolysis by the catalytic domain of Eya3. The assay is classed as biochemical. The conditions noted are these: substrate pNPP 3.4 mM, pH 6, 30°C, 30 minutes. The source says:
The catalytic domain (ED) of mouse Eyes Absent 3 (Eya3(223–510)) was purified as described before. Human Eyes Absent 3 isoform 2 (representing the major species identified in human cell lines by mass spectrometry and residues 127–573 of NM_001990, isoform 1) was sub-cloned into pDEST565 to express a poly-histidine- Glutathione-S-transferase (His-GST) tagged fusion protein with a TVMV protease site. The protein was purified by glutathione-S-transferase affinity chromatography followed by TVMV cleavage, Ni-NTA chromatography, and finally size exclusion chromatography.
The NCI Diversity Set II was obtained from the NCI in 96-well trays from the NIH Molecular Libraries Program and stored as 10 mM stocks in DMSO. An initial manual screen was conducted using the previously described p-nitrophenylphosphate assay and mouse Eya3(223–510) in a reaction mixture containing 20 mM MES pH 6, 2 mM MgCl2, 125 μM inhibitor, 3.4 mM para-nitrophenol phosphate (pNPP) and 0.01 μg/µL enzyme.
Compounds were dissolved in DMSO and diluted as needed. […] Reactions were incubated at 30°C for 30 minutes and quenched with 100 mM EDTA pH 10. IC50 values were then calculated directly from regression curves using PRISM. All reported values are the mean of two independent experiments.

For 1 compound, IC50 results are on record in publication PMC3335822 (PLoS ONE, 2012).

The structures appear in SMILES notation.

For the compound `CCCCc1oc2ccccc2c1C(=O)c1ccc(O)cc1` [Compound 1b], it took 10.1 µM to reach half-maximal inhibition (IC50).

As a reminder, the IC50 is the midpoint of a concentration-inhibition curve.
